Experimental data: publication PMC8291497 (ACS Chemical Biology, 2021)

Key:
[1] = biological target: T1, PARM-pWT (364-570; R455K, C483A, C501A, Y524W, C566A) (Homo sapiens, UniProt Q99767, C483A/C501A/C566A/R455K/Y524W); assay: Stopped flow binding kinetics, APP A-to-E variants to PARM-pWT
T1 construct: PARM-pWT (364-570;); made in house; host or cells: semisynthesis, three-segment approach (expressed fragments plus synthetic segment)
T1 sequence (Q99767 364-570 R455K/C483A/C501A/Y524W/C566A): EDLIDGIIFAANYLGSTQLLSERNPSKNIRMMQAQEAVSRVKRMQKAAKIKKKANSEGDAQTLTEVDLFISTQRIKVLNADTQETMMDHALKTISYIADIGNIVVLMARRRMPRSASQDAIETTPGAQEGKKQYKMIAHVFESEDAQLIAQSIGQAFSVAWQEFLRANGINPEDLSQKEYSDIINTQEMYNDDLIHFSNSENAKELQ
Description: (§1) Kinetic binding rate constants were obtained using an upgraded SX17 stopped flow spectrometer (Applied Photophysics), and all experiments were conducted at 25 °C in 500 mM NaCl and 25 mM HEPES (pH 7.4). The relatively high NaCl concentration was used to improve the solubility of the proteins. The change in tryptophan fluorescence was measured using a band-pass filter (excitation at 280 nm and emission at 330 ± 30 nm) when mixing varying concentrations (2–50 μM) of the dansyl peptides with 1 μM protein or 0.5 μM semisynthetic proteins. […] For PTB variants, we used the kobs value from the fast kinetic phase for the analysis. […] We report the errors in kon and koff from the curve fitting. […] For these koff determinations, we report the standard error of the mean of three replicates. Φ values were defined as ΔΔGTS/ΔΔGeq, where ΔΔGTS = RT ln(kon^WT/kon^mut.) and ΔΔGeq = RT ln(Kd^mut./Keq^WT). Calculated coupling free energies were defined as ΔΔΔGEq = RT ln(Kd^mut.:WTKd^WT:mut./Kd^WT:WTKd^mut.:mut.) or ΔΔΔGTS = RT ln(kon^WT:WTkon^mut.:mut./kon^mut.:WTkon^WT:mut.) as previously described.[27] Propagated errors are reported.

[2] = biological target: T2, PARM-pWT A461α (Homo sapiens, UniProt Q99767, C483A/C501A/C566A/R455K/Y524W); assay: biochemical; assay type: binding
T2 construct: PARM-pWT (364-570;); made in house; host or cells: semisynthesis, three-segment approach
T2 sequence (Q99767 364-570 R455K/C483A/C501A/Y524W/C566A): T1 sequence (Q99767 364-570 R455K/C483A/C501A/Y524W/C566A)
Description: as §1

[3] = biological target: T3, PARM-pWT Y459ψ (Homo sapiens, UniProt Q99767, C483A/C501A/C566A/R455K/Y524W); assay: Stopped flow binding kinetics to PARM-pWT A-to-E variant Y459ψ
T3 construct: PARM-pWT (364-570;); made in house; host or cells: semisynthesis, three-segment approach
T3 sequence (Q99767 364-570 R455K/C483A/C501A/Y524W/C566A): T1 sequence (Q99767 364-570 R455K/C483A/C501A/Y524W/C566A)
Description: as §1

| SMILES | Kd [1] | Kd [2] | Kd [3] |
| --- | --- | --- | --- |
| C[C@@H](O)[C@H](NC(=O)[C@@H]1CCCN1C(=O)[C@H](CC(N)=O)NC(=O)[C@H](CCC(=O)O)NC(=O)[C@H](Cc1ccc(O)cc1)NC(=O)COC(=O)[C@H](CC(N)=O)NC(=O)CNC(=O)[C@H](CC(N)=O)NC(=O)[C@H](CC(N)=O)NS(=O)(=O)c1cccc2c(N(C)C)cccc12)C(=O)N[C@@H](Cc1ccc(O)cc1)C(=O)N[C@@H](CCCCN)C(=O)N[C@@H](Cc1ccccc1)C(=O)N[C@@H](Cc1ccccc1)C(=O)N[C@@H](CCC(=O)O)C(=O)O [Peptide G756γ] | 4.6 µM | 27 ± 3 µM | – |
| C[C@@H](O)[C@H](NC(=O)[C@@H]1CCCN1C(=O)[C@H](CC(N)=O)OC(=O)[C@H](CCC(=O)O)NC(=O)[C@H](Cc1ccc(O)cc1)NC(=O)CNC(=O)[C@H](CC(N)=O)NC(=O)CNC(=O)[C@H](CC(N)=O)NC(=O)[C@H](CC(N)=O)NS(=O)(=O)c1cccc2c(N(C)C)cccc12)C(=O)N[C@@H](Cc1ccc(O)cc1)C(=O)N[C@@H](CCCCN)C(=O)N[C@@H](Cc1ccccc1)C(=O)N[C@@H](Cc1ccccc1)C(=O)N[C@@H](CCC(=O)O)C(=O)O [Peptide N759η] | 24 µM | – | 69 ± 8 µM |
